Measurements published in PubChem BioAssay AID1645883 (National Center for Advancing Translational Sciences (NCATS), 2021).
“And” between values parts separate entries of the source, which are not always exact repeats. Identical values can stand only once. The entries are a selection whose mix differs from that of the whole data set. Inconclusive results are not listed. The source made the active and inactive calls. Calls come from the whole dose curve; as a rule, active = well fitted activation curve with a large enough effect; inconclusive = small, poorly fitted or top-dose-only effect; inactive = no such curve, though single readings can be large or run the other way.
% is set by controls: 0 for no effect and ±100 for the full control effect.
Note: nearly all actives have a fitted effect of over 70% in size.

Protein sequences, listed by entry. Tags and fused reporters are not part of them. Lines headed by an entry give the natural chain unless they say otherwise; changes in a name come on top.
UniProt O95398: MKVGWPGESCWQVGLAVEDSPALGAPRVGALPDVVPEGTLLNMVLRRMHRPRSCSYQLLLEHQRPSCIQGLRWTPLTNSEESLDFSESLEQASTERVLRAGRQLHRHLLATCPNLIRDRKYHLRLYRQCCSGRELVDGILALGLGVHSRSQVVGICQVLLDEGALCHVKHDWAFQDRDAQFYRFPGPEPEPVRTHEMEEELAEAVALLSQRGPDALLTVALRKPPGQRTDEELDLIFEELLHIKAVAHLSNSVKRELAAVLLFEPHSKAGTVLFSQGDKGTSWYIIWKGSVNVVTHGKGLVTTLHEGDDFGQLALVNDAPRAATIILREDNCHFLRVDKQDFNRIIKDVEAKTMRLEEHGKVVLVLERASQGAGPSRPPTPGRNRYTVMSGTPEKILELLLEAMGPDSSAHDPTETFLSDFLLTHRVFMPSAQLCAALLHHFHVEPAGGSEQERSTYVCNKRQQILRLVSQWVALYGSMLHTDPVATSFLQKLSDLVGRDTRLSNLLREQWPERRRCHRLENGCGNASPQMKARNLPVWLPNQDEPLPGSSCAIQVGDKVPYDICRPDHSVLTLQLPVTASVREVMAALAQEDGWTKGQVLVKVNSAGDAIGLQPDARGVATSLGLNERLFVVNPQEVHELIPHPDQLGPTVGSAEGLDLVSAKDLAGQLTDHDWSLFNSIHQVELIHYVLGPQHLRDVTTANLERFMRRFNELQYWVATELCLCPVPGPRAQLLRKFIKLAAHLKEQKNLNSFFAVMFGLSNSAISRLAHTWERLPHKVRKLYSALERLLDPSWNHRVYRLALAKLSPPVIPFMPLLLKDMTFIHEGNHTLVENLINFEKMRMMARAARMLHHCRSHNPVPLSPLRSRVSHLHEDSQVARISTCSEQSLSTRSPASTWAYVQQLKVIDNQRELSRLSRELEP

Each compound was assayed against Rap guanine nucleotide exchange factor 3 (Homo sapiens) (UniProt O95398) (assay: Validation qHTS for agonist of cAMP-regulated guanine nucleotide exchange factor 3 (EPAC1)). Conditions: EPAC1 Rap1b BODIPY-GDP exchange, fluorescence; stronger effect = higher value; percent of cAMP control response.
From the text: Assay Provider (PI): Xiaodong Cheng Ph.D.
The University of Texas Medical Branch, […], TX
In multi-cellular eukaryotic organisms, the effects of cAMP are transduced by two ubiquitously-expressed intracellular cAMP receptors, the classic protein kinase A/cAMP-dependent protein kinase (PKA/cAPK) and the more recently discovered exchange protein directly activated by cAMP/cAMP-regulated guanine nucleotide exchange factor (EPAC/cAMP-GEF). Both PKA and EPAC are ubiquitously expressed in all tissues, and an increase in intracellular cAMP levels will lead to the activation of both PKA and EPAC. Therefore, careful dissections of the individual role and relative contribution of EPAC and PKA within the overall cAMP signaling in various model systems are critical for further elucidating the mechanism of cAMP signaling. To date no EPAC-specific antagonists and agonist, as well as isoform-specific agonists have been reported, and developing EPAC-specific pharmacological probes to determine the physiological functions that EPAC play in the overall cAMP-mediated signaling remains a major challenge within the research field. Furthermore, identified regulators of EPAC may lead to new mechanism-based therapeutic strategies specifically targeting the EPAC / cAMP-signaling components as EPAC has been implicated to play important roles in major human pathological conditions such as diabetes, heart disease, and cancer.
This qHTS will be used to screen the Molecular Libraries Small Molecule Repository (MLSMR) as a concentration-titration series using the NCGC unique quantitative screening (qHTS) platform to find activators for EPAC1. In addition, this assay will also be used as a counterscreen for the EPAC2 qHTS. This fluorescent based assay is developed and validated for EPAC1 that measures exchange using EPAC effector Rap1 complex with BODIPY-GDP, a GDP analog with a tethered fluorophores. Activators are identified by monitoring the change in fluorescence signal as the exchanged free BODIPY-GDP has a reduced fluorescence compared to Rap1-bound BODIPY-GDP. Increase in signal (activation) is the desired outcome for the EPAC1 agonist while no activity in this assay is desired for the EPAC2 agonist counterscreen.
[1] de Rooij, J., Zwartkruis, F. J., Verheijen, M. H., Cool, R. H., Nijman, S. M., Wittinghofer, A., and Bos, J.L. (1998) Nature 396, 474-477.
Briefly, three uL of reagents (100 nM EPAC1, 250 nM RAP1B-BODIPY-GDP, 50 uM GDP) were dispensed into a 1536-well Greiner black solid-bottom medium binding assay plate. Controls and test compounds (23 nL) were transferred to the plate via a Kalypsys pin tool equipped with a 1536-pin array. The plates were centrifuged at 1,000 rpm for 15 seconds followed by 5 minute incubation at room temperature. The assay plates were read at 5 minute intervals for 30 minutes in the ViewLux plate reader using 480nm excitation and 540nm emission filters. The results were normalized to the agonist positive control of 6.5 mM cAMP.
`COc1cc([N+](=O)[O-])c([N+](=O)[O-])cc1OC` was tested, and the max response was inactive: -13%. With `CC(=O)C1=CCCC2CCC1N2` (configuration not stated) the max response was inactive: -12%. With `Cc1cc(C=O)ccc1N(CCCl)CCCl` the max response was inactive: -7.35%. With `Nc1c(O)cc([N+](=O)[O-])cc1[N+](=O)[O-]` the max response was inactive: 13.3%. With `CN(C(=O)Cc1ccc(Cl)c(Cl)c1)[C@H]1CCCC[C@@H]1N1CCCC1` the max response was inactive: 1.12% [middle of 8 runs]. For `CCNC(C)Cc1ccc2c(c1)OCO2` (configuration not stated), the max response was inactive: -0.295%. In the case of `O=C(OC1CN2CCC1CC2)c1ccccc1` (configuration not stated), the max response is reported as inactive: -4.03%. With `CN(C(=O)Cc1ccc(Cl)c(Cl)c1)[C@@H]1CCCC[C@@H]1N1CCCC1` the max response was inactive: -8.3%. In the case of `O=[N+]([O-])c1cc([N+](=O)[O-])c2nc[nH]c2c1`, the max response is reported as inactive: 21.3%. In the case of `CN(C(=O)Cc1ccccc1)[C@H]1CC[C@@]2(CCCO2)C[C@@H]1N1CCCC1`, the max response is reported as inactive: 3.76%. `Cc1cc([N+](=O)[O-])cc([N+](=O)[O-])c1O` was tested, and the max response was inactive: 9.54%. For `CN(C(=O)Cc1ccc(Cl)c(Cl)c1)[C@@H]1CCCC[C@H]1N1CCCC1`, the max response was inactive: -13.9%. For `CN(CCCl)Cc1cc(Cl)c(NC2=NCCN2)c(Cl)c1`, the max response was inactive: -8.15% and inactive: -6.95%. For `NC(=O)Nc1ccc([As](=O)(O)O)cc1`, the max response was inactive: -35.2%. `CN(C(=O)Cc1ccc(Cl)c(Cl)c1)[C@H]1CC[C@@]2(CCCO2)C[C@@H]1N1CCCC1` was tested, and the max response was inactive: -8.32%. For `CN(C(=O)Cc1ccccc1)[C@@H]1CC[C@]2(CCCO2)C[C@H]1N1CCCC1`, the max response was inactive: 4.11%. `CN(C(=O)Cc1ccc(Cl)c(Cl)c1)[C@@H]1CC[C@]2(CCCO2)C[C@H]1N1CCCC1` was tested, and the max response was inactive: -2.19%.
